These results are taken from ChEMBL document CHEMBL1124552 (J Med Chem, 1989).

This data set is described as follows: Average half life period was determined. It counts as ADME.

SMILES strings stand for the structures.

Turning to `O=[P@@]1(N(CCCl)CCCl)N[C@@H](O)CCO1.O=[P@@]1(N(CCCl)CCCl)N[C@H](O)CCO1`, the Average half life is 59 min.
